Experimental data: patent US10040791B2, “Isoxazole derivative as mutant isocitrate dehydrogenase 1 inhibitor” (Daiichi Sankyo Company, Limited, priority 2014, dated 2018)

Sequences of proteins named here, by UniProt entry; tags and fusion partners are left off.
UniProt O75874, whole entry R132H: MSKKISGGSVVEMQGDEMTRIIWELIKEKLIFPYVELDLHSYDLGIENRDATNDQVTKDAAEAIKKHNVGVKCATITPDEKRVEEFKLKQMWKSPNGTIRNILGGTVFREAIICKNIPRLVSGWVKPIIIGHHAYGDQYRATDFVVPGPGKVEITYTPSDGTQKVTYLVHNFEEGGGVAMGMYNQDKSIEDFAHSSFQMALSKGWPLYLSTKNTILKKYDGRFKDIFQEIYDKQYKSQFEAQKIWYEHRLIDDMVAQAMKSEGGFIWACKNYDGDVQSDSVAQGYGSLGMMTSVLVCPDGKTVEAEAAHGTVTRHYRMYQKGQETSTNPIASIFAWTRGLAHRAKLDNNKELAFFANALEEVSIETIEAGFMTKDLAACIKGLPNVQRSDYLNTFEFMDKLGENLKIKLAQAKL

target: IDH1R132H (Homo sapiens (Human), UniProt O75874, R132H); assay: Inhibitory activity against IDH1R132H enzyme (NADPH detection, WST-8); format: biochemical; conditions: 12 nM, residual NADPH detected with WST-8, read-out: Test Example 1 IDH1 R132H IC50

| SMILES | IC50 |
| --- | --- |
| C=CC(=O)N1CCN(c2onc(-c3c(Cl)cc(Cl)cc3Cl)c2C(=O)n2ccc3c(/C=C/C(=O)O)cccc32)C(C)C1 (stereo in doubt) [Example 146, (2E)-3-[1-({5-[(2R)-4-Acryloyl-2-methylpiperazin-1-yl]-3-(2,4,6-trichlorophenyl)-1,2-oxazol-4-yl}carbonyl)-1H-indol-4-yl]prop-2-enoic acid] | 176 nM |
| Cc1cn(C(=O)c2c(-c3c(Cl)cc(Cl)cc3Cl)noc2C2(C)COC2)c2cccc(/C=C/C(=O)O)c12 [Example 2, (2E)-3-(3-Methyl-1-{[5-(3-methyloxetan-3-yl)-3-(2,4,6-trichlorophenyl)-1,2-oxazol-4-yl]carbonyl}-1H-indol-4-yl)prop-2-enoic acid] | 7 nM |
| COC1(c2onc(-c3c(Cl)cc(Cl)cc3Cl)c2C(=O)n2ccc3c(/C=C/C(=O)O)cccc32)COC1 [Example 3, (2E)-3-(1-{[5-(3-Methoxyoxetan-3-yl)-3-(2,4,6-trichlorophenyl)-1,2-oxazol-4-yl]carbonyl}-1H-indol-4-yl)prop-2-enoic acid] | 7 nM |
| COC1(c2onc(-c3c(Cl)cc(Cl)cc3Cl)c2C(=O)n2cc(C)c3c(/C=C/C(=O)O)cccc32)COC1 [Example 4, (2E)-3-(1-{[5-(3-Methoxyoxetan-3-yl)-3-(2,4,6-trichlorophenyl)-1,2-oxazol-4-yl]carbonyl}-3-methyl-1H-indol-4-yl)prop-2-enoic acid] | 8 nM |
| O=C(O)/C=C/c1cccc2c1ccn2C(=O)c1c(-c2c(Cl)cc(Cl)cc2Cl)noc1C1(F)COC1 [Example 6, (2E)-3-(1-{[5-(3-Fluorooxetan-3-yl)-3-(2,4,6-trichlorophenyl)-1,2-oxazol-4-yl]carbonyl}-1H-indol-4-yl)prop-2-enoic acid] | 17 nM |
| CC(C)(O)c1onc(-c2c(Cl)cccc2Cl)c1C(=O)n1ccc2c(/C=C/C(=O)O)cccc21 [Example 7, (2E)-3-(1-{[3-(2,6-Dichlorophenyl)-5-(2-hydroxypropan-2-yl)-1,2-oxazol-4-yl]carbonyl}-1H-indol-4-yl)prop-2-enoic acid] | 11 nM |
| CC1(c2onc(-c3c(Cl)cc(Cl)cc3Cl)c2C(=O)n2ccc3c(/C=C/C(=O)O)ccnc32)COC1 [Example 9, (2E)-3-(1-{[5-(3-Methyloxetan-3-yl)-3-(2,4,6-trichlorophenyl)-1,2-oxazol-4-yl]carbonyl}-1H-pyrrolo[2,3-b]pyridin-4-yl]prop-2-enoic acid] | 28 nM |
| COC1(c2onc(-c3c(Cl)cc(Cl)cc3Cl)c2C(=O)n2cc3c4c(cccc42)/C(=C/C(=O)O)CC3)CCC1 [Example 12, (2E)-[1-{[5-(1-Methoxycyclobutyl)-3-(2,4,6-trichlorophenyl)-1,2-oxazol-4-yl]carbonyl}-3,4-dihydrobenzo[cd]indol-5(1H)-ylidene]ethanoic acid] | 16 nM |
| COC1(c2onc(-c3c(F)cc(Cl)cc3Cl)c2C(=O)n2cc(C)c3c(/C=C/C(=O)O)cccc32)CCC1 [Example 14, (2E)-3-(1-{[3-(2,4-Dichloro-6-fluorophenyl)-5-(1-methoxycyclobutyl)-1,2-oxazol-4-yl]carbonyl}-3-methyl-1H-indol-4-yl]prop-2-enoic acid] | 14 nM |
| COC1(c2onc(-c3c(F)cc(Cl)cc3Cl)c2C(=O)n2cc3c4c(cccc42)/C(=C/C(=O)O)CC3)CCC1 [Example 15, (2E)-[1-{[3-(2,4-Dichloro-6-fluorophenyl)-5-(1-methoxycyclobutyl)-1,2-oxazol-4-yl]carbonyl}-3,4-dihydrobenzo[cd]indol-5(1H)-ylidene]ethanoic acid] | 12 nM |
| Cc1cn(C(=O)c2c(-c3ccc(Cl)c(F)c3Cl)noc2C(C)(C)F)c2cccc(/C=C/C(=O)O)c12 [Example 17] | 24 nM |
| CC1(c2onc(-c3c(Cl)cc(Cl)cc3Cl)c2C(=O)n2cc3c4c(cccc42)/C(=C/C(=O)O)CC3)CC(F)(F)C1 [Example 19] | 16 nM |
| CC(C)(F)c1onc(-c2ccc(Cl)c(F)c2Cl)c1C(=O)n1cc2c3c(cccc31)/C(=C/C(=O)O)CC2 [Example 20, (2E)-[1-{[3-(2,4-Dichloro-3-fluorophenyl)-5-(2-fluoropropan-2-yl)-1,2-oxazol-4-yl]carbonyl}-3,4-dihydrobenzo[cd]indol-5(1H)-ylidene]ethanoic acid] | 27 nM |
| CC(C)c1onc(-c2c(Cl)cccc2Cl)c1C(=O)n1ccc2c(/C=C/C(=O)O)cccc21 [Example 23, (2E)-3-(1-{[3-(2,6-Dichlorophenyl)-5-(propan-2-yl)-1,2-oxazol-4-yl]carbonyl}-1H-indol-4-yl)prop-2-enoic acid] | 6 nM |
| CC(C)(C)c1onc(-c2c(Cl)cccc2Cl)c1C(=O)n1ccc2c(/C=C/C(=O)O)cccc21 [Example 24, (2E)-3-(1-{[5-(tert-Butyl)-3-(2,6-dichlorophenyl)-1,2-oxazol-4-yl]carbonyl}-1H-indol-4-yl)prop-2-enoic acid] | 30 nM |
| Cc1cn(C(=O)c2c(-c3c(Cl)cccc3Cl)noc2C(C)C)c2cccc(/C=C/C(=O)O)c12 [Example 25, (2E)-3-(1-{[3-(2,6-Dichlorophenyl)-5-(propan-2-yl)-1,2-oxazol-4-yl]carbonyl}-3-methyl-1H-indol-4-yl)prop-2-enoic acid] | 30 nM |

| SMILES | IC50 |
| --- | --- |
| CC(C)c1onc(-c2c(Cl)cc(Cl)cc2Cl)c1C(=O)n1ccc2c(/C=C/C(=O)O)cccc21 [Example 26, (2E)-3-(1-{[5-(Propan-2-yl)-3-(2,4,6-Trichlorophenyl)-1,2-oxazol-4-yl]carbonyl}-1H-indol-4-yl)prop-2-enoic acid] | 38 nM |
| COC(C)(C)c1onc(-c2c(Cl)cccc2Cl)c1C(=O)n1ccc2c(/C=C/C(=O)O)cccc21 [Example 27, (2E)-3-(1-{[3-(2,6-Dichlorophenyl)-5-(2-methoxypropan-2-yl)-1,2-oxazol-4-yl]carbonyl}-1H-indol-4-yl)prop-2-enoic acid] | 11 nM |
| CC(C)c1onc(-c2c(Cl)ccc(F)c2Cl)c1C(=O)n1ccc2c(/C=C/C(=O)O)cccc21 [Example 28, (2E)-3-(1-{[3-(2,6-Dichloro-3-fluorophenyl)-5-(propan-2-yl)-1,2-oxazol-4-yl]carbonyl}-1H-indol-4-yl)prop-2-enoic acid] | 8 nM |
| Cc1cn(C(=O)c2c(-c3c(Cl)cc(Cl)cc3Cl)noc2C(C)C)c2cccc(/C=C/C(=O)O)c12 [Example 29, (2E)-3-(1-{[5-(Propan-2-yl)-3-(2,4,6-trichlorophenyl)-1,2-oxazol-4-yl]carbonyl}-3-methyl-1H-indol-4-yl)prop-2-enoic acid] | 14 nM |
| Cc1cn(C(=O)c2c(-c3c(Cl)ccc(F)c3Cl)noc2C(C)C)c2cccc(/C=C/C(=O)O)c12 [Example 30, (2E)-3-(1-{[3-(2,6-Dichloro-3-fluorophenyl)-5-(propan-2-yl)-1,2-oxazol-4-yl]carbonyl}-3-methyl-1H-indol-4-yl)prop-2-enoic acid] | 12 nM |
| COC(C)(C)c1onc(-c2c(Cl)cc(Cl)cc2Cl)c1C(=O)n1ccc2c(/C=C/C(=O)O)cccc21 [Example 31, (2E)-3-(1-{[5-(2-Methoxypropan-2-yl)-3-(2,4,6-trichlorophenyl)-1,2-oxazol-4-yl]carbonyl}-1H-indol-4-yl)prop-2-enoic acid] | 7 nM |
| CC(C)(C)c1onc(-c2c(Cl)cc(Cl)cc2Cl)c1C(=O)N1CCc2c(/C=C/C(=O)O)cccc21 [Example 32, (2E)-3-(1-{[5-(tert-Butyl)-3-(2,4,6-trichlorophenyl)-1,2-oxazol-4-yl]carbonyl}-2,3-dihydro-1H-indol-4-yl)prop-2-enoic acid] | 43 nM |
| Cc1cn(C(=O)c2c(-c3c(Cl)cc(Cl)cc3Cl)noc2C(C)(C)C)c2cccc(/C=C/C(=O)O)c12 [Example 33, (2E)-3-(1-{[5-(tert-Butyl)-3-(2,4,6-trichlorophenyl)-1,2-oxazol-4-yl]carbonyl}-3-methyl-1H-indol-4-yl)prop-2-enoic acid] | 20 nM |
| CC(C)(C)c1noc(-c2c(Cl)cc(Cl)cc2Cl)c1C(=O)n1ccc2c(/C=C/C(=O)O)cccc21 [Example 34, (2E)-3-(1-{[3-(tert-Butyl)-5-(2,4,6-trichlorophenyl)-1,2-oxazol-4-yl]carbonyl}-1H-indol-4-yl)prop-2-enoic acid] | 53 nM |
| CC(C)(C)c1onc(-c2c(F)cc(Cl)cc2Cl)c1C(=O)n1ccc2c(/C=C/C(=O)O)cccc21 [Example 35, (2E)-3-(1-{[5-(tert-Butyl)-3-(2,4-dichloro-6-fluorophenyl)-1,2-oxazol-4-yl]carbonyl}-1H-indol-4-yl)prop-2-enoic acid] | 31 nM |
| CC(C)(F)c1onc(-c2c(Cl)cc(Cl)cc2Cl)c1C(=O)n1ccc2c(/C=C/C(=O)O)cccc21 [Example 36, (2E)-3-(1-{[5-(2-Fluoropropan-2-yl)-3-(2,4,6-trichlorophenyl)-1,2-oxazol-4-yl]carbonyl}-1H-indol-4-yl)prop-2-enoic acid] | 13 nM |
| CC1(c2onc(-c3c(Cl)cc(Cl)cc3Cl)c2C(=O)n2ccc3c(/C=C/C(=O)O)cccc32)CC1 [Example 37, (2E)-3-(1-{[5-(1-Methylcyclopropyl)-3-(2,4,6-trichlorophenyl)-1,2-oxazol-4-yl]carbonyl}-1H-indol-4-yl)prop-2-enoic acid] | 13 nM |
| Cc1cc(Cl)c(-c2noc(C(C)(C)C)c2C(=O)n2ccc3c(/C=C/C(=O)O)cccc32)c(Cl)c1 [Example 38, (2E)-3-(1-{[5-(tert-Butyl)-3-(2,6-dichloro-4-methylphenyl)-1,2-oxazol-4-yl]carbonyl}-1H-indol-4-yl)prop-2-enoic acid] | 34 nM |
| CC(C)(C)c1onc(-c2c(Cl)cccc2Br)c1C(=O)n1ccc2c(/C=C/C(=O)O)cccc21 [Example 39, (2E)-3-(1-{[3-(2-Bromo-6-chlorophenyl)-5-(tert-butyl)-1,2-oxazol-4-yl]carbonyl}-1H-indol-4-yl)prop-2-enoic acid] | 12 nM |
| Cc1cc(Cl)cc(Cl)c1-c1noc(C(C)(C)C)c1C(=O)n1ccc2c(/C=C/C(=O)O)cccc21 [Example 41, (2E)-3-(1-{[5-(tert-Butyl)-3-(2,4-dichloro-6-methylphenyl)-1,2-oxazol-4-yl]carbonyl}-1H-indol-4-yl)prop-2-enoic acid] | 52 nM |
